# scFv variants of Ab-14 (heavy chain) against a SARS-CoV-2 spike peptide

From the AlphaSeq antibody data of Engelhart et al. 2022 (doi:10.1038/s41597-022-01779-4), copy in the FLAb collection.

Binding partner: SARS-CoV-2 spike HR2 peptide, sequence PDVDLGDISGINAS.

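The starting antibody came from a phage panning campaign against this peptide. In library AAYL49, one, two or three CDR residues were substituted; doubles and triples were drawn at random. Affinity was read by AlphaSeq, a pooled yeast mating assay with surface-displayed partners. The frequency of each diploid, read from paired DNA barcodes, reflects how well the two displayed proteins bind. A regression on co-assayed BCL2-family reference pairs converts the normalised counts of each replicate to an apparent Kd. Mating was done three times.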

The variants keep the light chain, the linker and the frameworks of Ab-14 (scFv order VH, a 15-residue (Gly4Ser)3 linker, VL).
VH: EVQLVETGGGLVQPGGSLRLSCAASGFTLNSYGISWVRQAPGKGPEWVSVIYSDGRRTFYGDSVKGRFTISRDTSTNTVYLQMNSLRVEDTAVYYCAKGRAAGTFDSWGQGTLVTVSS
VL: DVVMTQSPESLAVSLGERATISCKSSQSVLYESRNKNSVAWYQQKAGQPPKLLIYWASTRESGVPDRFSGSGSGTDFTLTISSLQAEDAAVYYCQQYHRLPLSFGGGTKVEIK

Substitutions are numbered in sequence along the VH above, starting at 1 (not Kabat).
Every variant below is changed at G33 of the VH (sequential numbering).
Values are log10 of the apparent Kd in nM; lower means stronger binding.
The mean shown is taken over the replicates in which the pair was detected.
Where no diploid with the target was found in that replicate, the entry reads "nd": below detection, most likely a poor binder, though not proof of it.
Background: pairings of library AAYL49 with three empty control strains gave a value in 15% of cases (median 4.06, 5th percentile 2.83). Values in that range, when seen in few replicates, are hard to tell from nonspecific mating.

With G33Q+G103Q+T104H the result was nd, nd, nd. With G33N+S63M the result was nd, nd, 5.48. For G33R+G61Q+V64T, the assay gave 4.37, 4.16, nd (mean 4.26). The variant S31T+G33Q gave nd, 3.30, nd. The variant S31G+G33F+R56E showed 6.03, 3.36, nd (mean 4.69). For G33F, the assay gave nd, nd, nd.

For G33R+F59Q+A102Q, the assay gave nd, nd, nd. With S31Q+G33Q the result was nd, 5.42, nd. The variant G33R+D62H+A102R showed 5.40, nd, nd. The variant G33T+S53G+R57K showed nd, 3.64, nd. With F27V+L29N+G33C the result was nd, nd, nd. The variant G33S+F59R+V64Y showed nd, nd, 5.24.

The variant G33A+S53P gave nd, nd, nd. The variant G33Y+S53M+R100G showed 4.35, nd, 5.57 (mean 4.96). The variant G33S+I51S+T58K showed nd, nd, nd. With F27P+G33D+R56K the result was 3.40, 3.09, 3.28 (mean 3.26). With Y32P+G33Q+I34T the result was nd, 3.88, nd. The variant G33P+T58I+S63L gave nd, nd, 3.67.

The variant F27Q+G33F+T104K showed nd, nd, nd. The variant G33T+F59I gave nd, nd, 5.22. The variant G33N+G99I+T104F gave nd, nd, nd. With G33Y+Y52F+R100I the result was nd, nd, 3.06. The variant G33A+G55S+F59N showed nd, nd, nd. For G33Q+G61Y, the assay gave nd, nd, nd.

The variant T28H+N30Y+G33D gave nd, nd, nd. With L29P+G33A+T58D the result was nd, nd, nd. For G33P+R57H+R100E, the assay gave nd, nd, nd. The variant G33T showed 4.55, nd, nd. For G33F+F105N, the assay gave nd, nd, nd. With G33R+V50Q+A102Y the result was 4.12, 3.15, nd (mean 3.64).

The first 5 variants above that were never detected:

For G33Q+G103Q+T104H, the assay gave nd, nd, nd.
For G33F, the assay gave nd, nd, nd.
For G33R+F59Q+A102Q, the assay gave nd, nd, nd.
For F27V+L29N+G33C, the assay gave nd, nd, nd.
For G33A+S53P, the assay gave nd, nd, nd.